Results: paper PMC4323178 (Journal of thrombosis and haemostasis : JTH, 2011)

Molecular target: DR0301 (Homo sapiens, UniProt P01903+P01911, A100K/A102G/A103R/A169T/F55Y/I96L/K41T/L162R/M171V/P40S/Q125H/Q178H/Q39Y/R42S/S66N/T106N/W38E/Y61H)
Assay type: binding
Conditions: SEM

IC50: 44 ± 7 µM
Structure (SMILES): CC[C@H](C)[C@H](NC(=O)[C@H](CC(N)=O)NC(=O)[C@H](CCC(=O)O)NC(=O)[C@@H](NC(=O)[C@H](CC(C)C)NC(=O)[C@H](Cc1ccc(O)cc1)NC(=O)[C@H](Cc1c[nH]c2ccccc12)NC(=O)[C@H](CO)NC(=O)[C@H](CCCNC(=N)N)NC(=O)[C@H](CC(N)=O)NC(=O)[C@@H](N)CCC(=O)O)[C@@H](C)O)C(=O)N[C@@H](CCC(N)=O)C(=O)N[C@@H](CCCNC(=N)N)C(=O)N[C@@H](Cc1ccccc1)C(=O)N[C@@H](CC(C)C)C(=O)N1CCC[C@H]1C(=O)N[C@@H](CC(N)=O)C(=O)N1CCC[C@H]1C(=O)N[C@@H](C)C(=O)NCC(=O)O [FVIII581–600]
